The values that follow come from PubChem BioAssay AID2563 (Broad Institute, 2010).

Amino acid sequences for entries named in this document (tags omitted).
UniProt Q03530, whole entry: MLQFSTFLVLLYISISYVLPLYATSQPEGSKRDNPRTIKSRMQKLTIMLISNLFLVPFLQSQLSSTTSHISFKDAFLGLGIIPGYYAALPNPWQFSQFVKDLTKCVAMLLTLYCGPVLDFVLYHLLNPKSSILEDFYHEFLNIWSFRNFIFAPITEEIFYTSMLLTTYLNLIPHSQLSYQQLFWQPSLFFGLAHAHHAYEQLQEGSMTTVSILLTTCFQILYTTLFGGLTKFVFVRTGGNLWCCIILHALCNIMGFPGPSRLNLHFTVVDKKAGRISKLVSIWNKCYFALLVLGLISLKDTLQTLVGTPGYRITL

Only a part is listed here, and it is no random draw. Some structures show a salt or complex split into parts, the way the source records it. Active and inactive are the calls of the source.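 How the source made its calls: active means fall in fluorescence gain of 50% or more versus controls, with final raw signal at or below 3038400; inconclusive means same 50% fall but final raw signal above 3038400; inactive means fall in fluorescence gain under 50%.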

This assay deals with CAAX prenyl protease 2 (Saccharomyces cerevisiae (strain ATCC 204508 / S288c)) (UniProt Q03530). Description: blockers of Rce1 CaaX peptide cleavage – biochemical, fluorescence, cell-free homogeneous, primary screen (AID 2563). The following applies: yeast membranes, quenched prenylated peptide cleavage fluorescence.
For the molecule `CN(C(=O)Cc1ccc(Cl)c(Cl)c1)[C@@H]1CCCC[C@H]1N1CCCC1`, the call was inactive.
For the molecule `CC(C)/C=N\N=C(\N)N[N+](=O)[O-]`, the call was inactive.
With `COc1ccccc1CNC(=O)COC(=O)C(O)(c1ccccc1)c1ccccc1`, the outcome was inactive.
Next, `O=[N+]([O-])c1cc([N+](=O)[O-])c(-c2cnn(-c3ccccc3)c2)c([N+](=O)[O-])c1`: “inactive”; `CCOC(=O)c1ccc(NP(C)(=O)Oc2cc(C)cc(C)c2)cc1` (configuration not stated): “inactive”.
Next, `Cc1cc(C)cc(OP(C)(=O)Nc2ccc(C)cc2C)c1` (configuration not stated): “inactive”; `Cc1cccc(OCC(=O)OC2CN3CCC2CC3)c1` (configuration not stated): “inactive”; `O=[As](O)(c1cccc(O)c1)c1cccc(O)c1`: “inactive”.
The value for `COc1ccccc1OP(C)(=O)Nc1cccc(Br)c1` (configuration not stated) was “inactive”.
`O=[As](O)(O)c1cccnc1`: the molecule was called inactive.
`COc1cc(C(=O)NCC2(N3CCOCC3)CCCCC2)cc(Cl)c1OC(C)C`: the outcome was inactive.
The value for `O=C(OC1CN2CCC1CC2)c1ccc(Cl)cc1` (configuration not stated) was “inactive”; that for `CCOP(=O)(Nc1cccc2ccccc12)OCC` was “inactive”.
The value for `Cc1ccc(C)c(NP(C)(=O)Oc2ccccc2)c1` (configuration not stated) was “inactive”.
Next, `CCCOP(=S)(Nc1nc(N)cc(=O)[nH]1)OCCC`: “inactive”; `Cc1ccc(NCCc2c([N+](=O)[O-])cc([N+](=O)[O-])cc2[N+](=O)[O-])cc1`: “inactive”; `Nc1cccc2c([As](=O)(O)O)cccc12`: “inactive”.
`Cc1cc(C)cc(OP(C)(=O)Nc2ccccn2)c1` (configuration not stated): the molecule was classed as inactive.
`CP(=O)(Nc1cccc(Br)c1)Oc1ccccc1` (configuration not stated): the result was inactive.
Next, `O=C(O)COc1ccc([As](=O)(O)O)cc1[N+](=O)[O-]`: “inactive”; `Nc1ccccc1[As](=O)(O)c1ccccc1`: “inactive”.
Next, `CS(=O)(=O)c1cc([N+](=O)[O-])c2no[n+]([O-])c2c1`: “inactive”.
For `O=P(Nc1nccs1)(Oc1ccccc1)Oc1ccccc1`, the result was inactive.
Next, `O=P(Nc1nccs1)(c1ccccc1)c1nc2ccccc2s1` (configuration not stated): “inactive”; `O=C(O)c1cccc(Nc2c([N+](=O)[O-])cc([N+](=O)[O-])cc2[N+](=O)[O-])c1`: “inactive”; `CCOP1(=S)c2c(C)nn(CCC#N)c2N=C(c2ccccc2F)N1C` (configuration not stated): “inactive”.
Consider `CC1=NCCc2c1[nH]c1ccccc21.O=[N+]([O-])c1cc([N+](=O)[O-])c(O)c([N+](=O)[O-])c1`, for which the result was inactive.
For the molecule `CN(C(=O)Cc1ccc(Cl)c(Cl)c1)[C@H]1CC[C@@]2(CCCO2)C[C@@H]1N1CCCC1`, the molecule was classed as inactive.
The value for `O=[N+]([O-])c1ccc2c(c1)nnn2O` was “inactive”; that for `CN(C)C(=O)c1cc([N+](=O)[O-])cc2c1-c1c(cc([N+](=O)[O-])cc1[N+](=O)[O-])C2=O` was “inactive”; that for `CN(C(=O)Cc1ccccc1)[C@@H]1CC[C@]2(CCCO2)C[C@H]1N1CCCC1` was “inactive”.
The value for `N#CCCN(C(=O)COC(=O)C(O)(c1ccccc1)c1ccccc1)c1ccc(F)cc1` was “inactive”; that for `NC(=O)Nc1ccc([As](=O)(O)O)cc1` was “inactive”; that for `CCOC(=O)c1ccc(NP(C)(=O)Oc2ccc(F)cc2)cc1` (configuration not stated) was “inactive”.
The value for `COc1ccc(OP(C)(=O)Nc2ccc(SC(F)(F)F)cc2)cc1` (configuration not stated) was “inactive”; that for `O=C(NC1CCS(=O)(=O)C1)NP(=S)(Oc1ccccc1)Oc1ccccc1` (configuration not stated) was “inactive”.
For the molecule `CCNC(=S)/N=C(\N)N[N+](=O)[O-]`, the call was inactive.
Next, `Cc1ccc(NP(=O)(Oc2cccc(C)c2)Oc2cccc(C)c2)nc1`: “inactive”; `CCOC(=O)NC(Sc1ccccc1)C(Cl)(Cl)Cl` (configuration not stated): “inactive”.
With `c1ccc(-c2nn[nH]n2)c(-c2nn[nH]n2)c1`, the outcome was inactive.
Next, `CP(=O)(Nc1ccccc1)Oc1ccc(F)cc1` (configuration not stated): “inactive”; `CCCCCOc1ccc(NP(C)(=O)Oc2ccc(Cl)cc2Cl)cc1` (configuration not stated): “inactive”.
The value for `O=[N+]([O-])c1cc([N+](=O)[O-])c(OC2CCCCC2O)c([N+](=O)[O-])c1` (configuration not stated) was “inactive”; that for `CN(C)C(=O)Oc1noc2ccccc12` was “inactive”; that for `Cc1ccccc1OP(=O)(Nc1ccccn1)Oc1ccccc1C` was “inactive”.
As for `CC(=O)NC(SC(=S)N(CC(C)C)CC(C)C)C(Cl)(Cl)Cl` (configuration not stated), the molecule was called inactive.
The value for `Cc1ccc(OP(=O)(Nc2ccccn2)Oc2ccc(C)cc2)cc1` was “inactive”; that for `COC(=O)c1cc2c(s1)N=C(c1ccccc1)N(C)P2(=O)N1CCOCC1` (configuration not stated) was “inactive”.
Next, `CCC(=O)N1C2C3N(C(=O)CC)C1C1N(C(=O)CC)C(C(N1C(=O)CC)N3C(=O)CC)N2C(=O)CC`: “inactive”; `CCN(CC)CCCOC(=O)C(O)(c1ccccc1)C1CCCCC1` (configuration not stated): “inactive”.
The value for `O=C(OC1CN2CCC1CC2)c1ccccc1` (configuration not stated) was “inactive”.
`CP(=O)(Nc1ccccc1F)Oc1ccccc1` (configuration not stated): the call was inactive.
The value for `CC(C)c1ccc(OP(C)(=O)Nc2ccc(SC(F)(F)F)cc2)cc1` (configuration not stated) was “inactive”.
Next, `CC(C)(C)C(=O)NC(Sc1ccccc1)C(Cl)(Cl)Cl` (configuration not stated): “inactive”; `CCOc1ccc(C2=NCC(CBr)S2)cc1` (configuration not stated): “inactive”.
The value for `O=P1(Nc2nc3ccc(Cl)cc3s2)COc2ccccc2O1` (configuration not stated) was “inactive”; that for `CC(=O)Nc1ccc(Oc2c([N+](=O)[O-])cc([N+](=O)[O-])cc2[N+](=O)[O-])cc1` was “inactive”.
On to `CC(=O)Nc1ccc([As](=O)(O)O)c(O)c1`, for which the call was inactive.
With `COc1ccc2c(c1O)-c1c(O)c(OC)cc3c1[C@H](C2)[N+](C)(C)CC3.O=[N+]([O-])c1cc([N+](=O)[O-])c([O-])c([N+](=O)[O-])c1[O-]`, the molecule was classed as inactive.
For the molecule `O=C(OC1CN2CCC1CC2)c1ccc([N+](=O)[O-])cc1` (configuration not stated), the call was inactive.
For `CC(=O)c1ccc(N2CC2c2ccncc2)cc1` (configuration not stated), the outcome was inactive.
The value for `C[C@H]1OP(=O)(Oc2ccccc2)C[C@@H]2O[C@@H]21` (some centres not stated) was “inactive”; that for `C[C@@H]1C=CCP(=O)(Oc2ccccc2)O1` (some centres not stated) was “inactive”; that for `O=C(OCCN1CCN(CCOCc2ccccc2)CC1)C(O)(c1ccccc1)c1ccccc1` was “inactive”.
The value for `CCOP(C)(=S)SCC(=O)NC(C)(CC)C(=O)O` (configuration not stated) was “inactive”; that for `c1nnnn1CCn1cnnn1` was “inactive”; that for `CP(=O)(Nc1ccc(SC(F)(F)F)cc1)Oc1ccc(F)cc1` (configuration not stated) was “inactive”.
Consider `O=P(Nc1nccs1)(c1ccccc1)c1ccccc1`, for which the call was inactive.
Turning to `CC(C)C(=O)NC(Sc1ccccc1)C(Cl)(Cl)Cl` (configuration not stated), the result was inactive.
The value for `Cc1ccccc1NP(C)(=O)Nc1ccccc1C` was “inactive”; that for `CP(=O)(Nc1ccc2c(c1)OCCO2)Oc1ccccc1` (configuration not stated) was “inactive”.
The value for `C[C@H]1OP(=O)(Oc2ccccc2)[C@H](O)[C@H](O)[C@H]1N=[N+]=[N-]` (some centres not stated) was “inactive”.
